{"sequences": {"note": "Sequences of proteins named here, by UniProt entry; tags and fusion partners are left off. Residues count along the entry.", "UniProt P00742, 41-179 limits assumed": "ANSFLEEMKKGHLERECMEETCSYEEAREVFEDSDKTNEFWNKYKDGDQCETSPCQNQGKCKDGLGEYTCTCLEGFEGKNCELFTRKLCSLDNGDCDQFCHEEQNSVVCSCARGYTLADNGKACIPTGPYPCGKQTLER", "UniProt P00742, 235-488 limits assumed": "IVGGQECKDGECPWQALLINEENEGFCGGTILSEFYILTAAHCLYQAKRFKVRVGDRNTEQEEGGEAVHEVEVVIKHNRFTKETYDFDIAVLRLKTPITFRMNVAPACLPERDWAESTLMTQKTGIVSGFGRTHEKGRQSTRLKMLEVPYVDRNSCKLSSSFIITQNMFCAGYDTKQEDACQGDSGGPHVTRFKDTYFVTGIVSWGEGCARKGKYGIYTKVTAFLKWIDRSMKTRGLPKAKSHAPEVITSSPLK"}, "source": "ChEMBL document CHEMBL3351225", "about": "“Design, synthesis, and structure-activity and structure-pharmacokinetic relationship studies of novel [6,6,5] tricyclic fused oxazolidinones leading to the discovery of a potent, selective, and orally bioavailable FXa inhibitor” (J Med Chem, 2014)", "target": "Coagulation factor X (Homo sapiens, UniProt P00742)", "experiment": "Inhibition of human factor 10a using N-Z-D-Arg-Gly-Arg-pNA, S-2765 chromogenic substrate", "outline": "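Human enzyme and inhibitor were premixed and preincubated, then the chromogenic substrate was added. Substrate levels: 300 μM S-2765 (FXa, trypsin); 200 μM S-2366 (FIIa); 2 mM S-2366 (FVIIa, FXIa). pNA release was monitored continuously at 405 nm for 20 min at 37 °C. IC50 was obtained by nonlinear regression.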", "data": [{"smiles": "O=C(NC[C@@H]1OC(=O)N2c3ccc(N4CCCCC4=O)cc3OC[C@@H]12)c1ccc(Cl)s1", "values": [{"measurement": "IC50", "result": 20.2, "unit": "nM"}]}]}
